According to PMC6117091, “The C. difficile clnRAB operon initiates adaptations to the host environment in response to LL-37” (PLoS Pathogens, 2018):

How the values were obtained:
[1] = biological target: His-ClnR; assay: Surface plasmon resonance (SPR); type: binding, Clostridioides difficile; conditions: peptide immobilized on CM5 chip, 25°C immobilization; His-ClnR 10 μM to 0.625 μM, pH 7.3, Biacore X100, 1:1 affinity model
[2] = tested on: C. difficile clnR pMC123 PclnR::HIS-clnRAB; assay: qRT-PCR, His-ClnR complementation; conditions: 0.5 µg/ml LL-37; normalized to 630∆erm + pMC123 in BHIS; mean of 3 ± SEM
[3] = tested on: C. difficile clnR pMC123; assay: qRT-PCR, His-ClnR complementation; conditions: 0.5 µg/ml LL-37; normalized to 630∆erm + pMC123 in BHIS; mean of 3 ± SEM
[4] = tested on: C. difficile 630∆erm pMC123; assay: qRT-PCR, His-ClnR complementation; conditions: 0.5 µg/ml LL-37; normalized to 630∆erm + pMC123 in BHIS; mean of 3 ± SEM

CC[C@H](C)[C@H](NC(=O)[C@H](CCCCN)NC(=O)[C@H](CCC(=O)O)NC(=O)[C@H](CCCCN)NC(=O)[C@H](CO)NC(=O)[C@H](CCCCN)NC(=O)[C@H](CCCNC(=N)N)NC(=O)[C@H](Cc1ccccc1)NC(=O)[C@H](Cc1ccccc1)NC(=O)[C@H](CC(=O)O)NC(=O)CNC(=O)[C@H](CC(C)C)NC(=O)[C@@H](N)CC(C)C)C(=O)NCC(=O)N[C@@H](CCCCN)C(=O)N[C@@H](CCC(=O)O)C(=O)N[C@@H](Cc1ccccc1)C(=O)N[C@@H](CCCCN)C(=O)N[C@@H](CCCNC(=N)N)C(=O)N[C@H](C(=O)N[C@H](C(=O)N[C@@H](CCC(N)=O)C(=O)N[C@@H](CCCNC(=N)N)C(=O)N[C@H](C(=O)N[C@@H](CCCCN)C(=O)N[C@@H](CC(=O)O)C(=O)N[C@@H](Cc1ccccc1)C(=O)N[C@@H](CC(C)C)C(=O)N[C@@H](CCCNC(=N)N)C(=O)N[C@@H](CC(N)=O)C(=O)N[C@@H](CC(C)C)C(=O)N[C@H](C(=O)N1CCC[C@H]1C(=O)N[C@@H](CCCNC(=N)N)C(=O)N[C@H](C(=O)N[C@@H](CCC(=O)O)C(=O)N[C@@H](CO)C(=O)O)[C@@H](C)O)C(C)C)[C@@H](C)CC)C(C)C)[C@@H](C)CC [LL-37]
Kd [1]: 83 ± 14 nM
clnA (CD630_16180) relative expression [2]: 236.5 ± 22.7
vanZ1 (CD630_12400) relative expression [2]: 18.6 ± 2.3
clnA (CD630_16180) relative expression [3]: 44.9 ± 8.0
vanZ1 (CD630_12400) relative expression [3]: 21.8 ± 1.8
clnA (CD630_16180) relative expression [4]: 81.6 ± 20.5
